Values joined by “and” are separate entries in the source; they are usually repeats but may differ in a detail not shown here. Identical values can stand only once.
Biological target: Kappa-type opioid receptor (Homo sapiens) (UniProt P41145)
Test: Efficacy for maximal response against human k-opioid receptor

Amino acid sequences for entries named in this document (tags omitted). A change or cut given only in a name is not applied to a line headed by its entry.
UniProt P41145: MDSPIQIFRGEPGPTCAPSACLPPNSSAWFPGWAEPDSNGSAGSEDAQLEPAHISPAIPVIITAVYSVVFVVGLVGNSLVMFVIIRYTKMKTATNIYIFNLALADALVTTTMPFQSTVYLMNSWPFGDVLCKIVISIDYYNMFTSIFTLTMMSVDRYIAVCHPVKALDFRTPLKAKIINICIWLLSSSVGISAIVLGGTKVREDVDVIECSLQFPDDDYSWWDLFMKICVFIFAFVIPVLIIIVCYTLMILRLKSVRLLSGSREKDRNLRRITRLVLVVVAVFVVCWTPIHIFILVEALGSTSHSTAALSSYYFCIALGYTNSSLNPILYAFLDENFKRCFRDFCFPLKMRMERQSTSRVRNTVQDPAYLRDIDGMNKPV

| Compound | Efficacy |
| --- | --- |
| CN(C(=O)Cc1ccc(Cl)c(Cl)c1)C1CCCCC1N1CCCC1 (stereo not drawn) | 100% |
| COCO[C@H]1C[C@@H](C(=O)OC)[C@]2(C)CC[C@H]3C(=O)O[C@H](c4ccoc4)C[C@]3(C)C2C1=O (stereo partly drawn) | 98% and 100% |
| COC(=O)[C@@H]1C[C@H](O)C(=O)C2[C@@]1(C)CC[C@H]1C(=O)O[C@H](c3ccoc3)C[C@]21C (stereo partly drawn) | 102% and 97% |
